Experimental findings from ChEMBL document CHEMBL3301361, “Experimental in vitro DMPK and physicochemical data on a set of publicly disclosed compounds” are described below.

A word on the fraction unbound: it is free concentration divided by total concentration. Read a low fraction unbound as little free substance. Usually pKa stands for the pH at which an ionisable group is half protonated. Higher therefore signals a group that holds its proton tightly. By hepatocyte CLint is commonly meant a measure of how fast metabolising enzymes remove a compound, apart from limits set by blood flow. Low values mean greater metabolic stability, high ones faster metabolism. For orientation: solubility (thermodynamic) means solubility found after equilibrating the solid with the medium.

Converted amounts (≈) assume the structure as drawn.

One series is described as follows: in vitro. The following applies: mouse, plasma.
`CCN(C(=O)c1ccc(-c2ccc(Cl)cc2)o1)c1ccc(N2CCNCC2)cc1`: the fraction unbound at 5 h was 0.0391.

Regarding `CC(CC(=O)OC(C)(C)C)NC(=O)C1=NOC(C(O)(C(F)(F)F)C(F)(F)F)C1` (stereo not drawn), the fraction unbound at 5 h is 0.19.

`C[C@@H]1CN(C(=O)N[C@H](Cc2ccc(F)cc2)C(=O)N2CCC(C(=O)NC(C)(C)C)(C3CCCCC3)CC2)C[C@H](C)N1` had a fraction unbound at 5 h of 0.0752.

A short description of another series: in vitro. The following applies: Beagle, dog, plasma.
Compound `c1ccc2nc(COc3ccc(-c4n[nH]cc4-c4ccncc4)cc3)ccc2c1` gave a fraction unbound at 5 h of 0.002.

For the compound `CCS(=O)(=O)c1ccc(-c2cc(C(F)(F)F)ccc2OCC(=O)O)c(Cl)c1`, the fraction unbound at 5 h was 0.0224.

The next series is described as follows: in vitro. The following applies: Dunkin Hartley, guinea pig, plasma.
The compound `O=c1[nH]c2c(O)ccc([C@@H](O)CNCCSCCCNCCc3ccccc3)c2s1` had a fraction unbound at 5 h of 0.471.

A short description of the next series: physchem.
Details: not given
Compound `CCOc1ncc(C)c2c1[C@H](c1ccc(C#N)cc1OC)C(C(N)=O)=C(C)N2` [FINERENONE] displayed a pKa of 4.68.

`CN1CCN(C2=Nc3cc(Cl)ccc3Nc3ccccc32)CC1` [CLOZAPINE] came in with a pKa of 7.64.

A further series is described as follows: in vitro. Particulars: human, hepatocytes.
Regarding `Cc1c(OC2CCN(CC3CCN([C@@H](Cc4ccc(F)cc4)C(=O)O)CC3)CC2)ccc(C#N)c1Cl`, the hepatocyte CLint was less than 3 µL/min/1e6 cells.

`CCC(=O)NC(c1cccs1)c1cc(Cl)c2cccnc2c1O` (stereo not drawn): the hepatocyte CLint is greater than 150 µL/min/1e6 cells.

Consider `CCCCNC(=O)c1ccc(Oc2ccc(CC(=O)O)cc2OC)c(NS(=O)(=O)c2ccc(Cl)cc2Cl)c1`, for which the hepatocyte CLint was less than 3 µL/min/1e6 cells.

As for `CCS(=O)(=O)Nc1cccc2c1c(Oc1ccc(Cl)cc1)c(C)n2CC(=O)O`, the hepatocyte CLint is less than 3 µL/min/1e6 cells.

The compound `COc1cc2c(cc1-c1c(C)noc1C)ncc1[nH]c(=O)n([C@H](C)c3ccccn3)c12` yielded a hepatocyte CLint of 3.24 µL/min/1e6 cells.

The compound `O=C(O)CCc1ccc(OCc2cccc(Oc3ccccc3)c2)cc1` displayed a hepatocyte CLint greater than 150 µL/min/1e6 cells.

In the case of `Cc1ncc([N+](=O)[O-])n1CCO` [METRONIDAZOLE], the hepatocyte CLint was less than 3 µL/min/1e6 cells.

For `C[C@H](CO)Nc1nc(SCc2ccco2)nc2[nH]c(=O)sc12`, the hepatocyte CLint was 27.3 µL/min/1e6 cells.

For the compound `Cc1ccccc1-n1c(Cn2cnc3c(N)ncnc32)nc2cccc(C)c2c1=O`, the hepatocyte CLint turned out to be 11 µL/min/1e6 cells.

In the case of `C#CC[C@@H](C(=O)N[C@H](/C=C/C(=O)OCC)C[C@@H]1CCNC1=O)n1cccc(NC(=O)c2cc(C)on2)c1=O` [IMOCITRELVIR], the hepatocyte CLint turned out to be 38 µL/min/1e6 cells.

`COc1cc(-c2cccc3c(=O)cc(N4CCOCC4)oc23)ccc1NC(=O)CN1CCOCC1` registered a hepatocyte CLint of 27.5 µL/min/1e6 cells.

Turning to `COc1nc(C)nc(Cl)c1N=C1NCCN1` [MOXONIDINE], the hepatocyte CLint was less than 3 µL/min/1e6 cells.

`Cc1noc(C)c1-c1ccc(CNS(=O)(=O)c2c(C)noc2C)cc1`: the hepatocyte CLint turned out to be 19.1 µL/min/1e6 cells.

For `NCCCCCc1c[nH]c2ccc(F)cc12`, the hepatocyte CLint stood at 74.1 µL/min/1e6 cells.

For `CCN(Cc1cc(C(F)(F)F)ccc1-c1cc(CC(=O)O)ccc1OC)C(=O)NCc1ccccc1` [AM-211], the hepatocyte CLint came to 25.1 µL/min/1e6 cells.

In turn, `C=CC(=O)Nc1ccc2ncnc(Nc3cccc(C)c3)c2c1` came in with a hepatocyte CLint of 15.5 µL/min/1e6 cells.

In the case of `Cc1nn(-c2ccccc2)c(NC(=O)NS(=O)(=O)c2ccc(Cl)cc2)c1C#N`, the hepatocyte CLint was less than 3 µL/min/1e6 cells.

The compound `Cc1ccc(-c2ccc3c(ccc4sc5c(c43)NC[C@@H](C)NC5=O)n2)cn1` came in with a hepatocyte CLint of 6.92 µL/min/1e6 cells.

The compound `COc1cc(-n2cnc3cc(-c4ccc(Cl)cc4)sc3c2=O)ccc1OC[C@H](O)C1CC1` showed a hepatocyte CLint of 22.9 µL/min/1e6 cells.

Compound `Cc1ccc(-c2cc(-c3ccccc3)nn2-c2ccc(S(N)(=O)=O)cc2)cc1` registered a hepatocyte CLint of 13.5 µL/min/1e6 cells.

Regarding `CCCSc1ccc2nc(NC(=O)OC)[nH]c2c1` [ALBENDAZOLE], the hepatocyte CLint was 12.6 µL/min/1e6 cells.

`Cc1nn(-c2ccc(F)cc2)c(NS(=O)(=O)c2ccc(C(F)(F)F)cc2)c1C(=O)N[C@@H](C)C(C)(C)C` had a hepatocyte CLint of less than 3 µL/min/1e6 cells.

Take `CCOc1cc(CC(=O)N[C@@H](CC(C)C)c2ccccc2N2CCCCC2)ccc1C(=O)O` [REPAGLINIDE]: the hepatocyte CLint was 29.5 µL/min/1e6 cells.

`C[C@H]1CN(Cc2cc(Cl)ccc2OCC(=O)O)CCN1S(=O)(=O)c1ccccc1` had a hepatocyte CLint of less than 3 µL/min/1e6 cells.

On to `O=C(Nc1cc(-c2ccnc(Nc3ccc(F)cc3)c2)ccn1)C1CCOCC1`, for which the hepatocyte CLint is 14.8 µL/min/1e6 cells.

For the compound `CCNC(=O)C[C@@H]1N=C(c2ccc(Cl)cc2)c2cc(OC)ccc2-n2c(C)nnc21` [MOLIBRESIB], the hepatocyte CLint is less than 3 µL/min/1e6 cells.

In the case of `CCOc1ncc(C)c2c1[C@H](c1ccc(C#N)cc1OC)C(C(N)=O)=C(C)N2` [FINERENONE], the hepatocyte CLint worked out at 4.68 µL/min/1e6 cells.

On to `N#CC1(NC(=O)[C@@H]2CCCC[C@H]2C(=O)N2CCN(c3nc4ccncc4s3)CC2)CC1`, for which the hepatocyte CLint was determined as 4.9 µL/min/1e6 cells.

The compound `COc1ccnc(CCc2nc3c(C)ccnc3[nH]2)c1` gave a hepatocyte CLint of less than 3 µL/min/1e6 cells.

Consider `CC(NC(C)(C)C)C(=O)c1cccc(Cl)c1` (stereo not drawn) [BUPROPION], for which the hepatocyte CLint was determined as 17 µL/min/1e6 cells.

In the case of `CN(C)S(=O)(=O)NC(=O)CCCc1c(-c2ccc(F)cc2)[nH]c2ccc(C#N)cc12`, the hepatocyte CLint is 44 µL/min/1e6 cells.

The next series can be described thus: in vitro. The following applies: SD, HW or BN, rat, plasma.
Compound `CCN(C(=O)c1ccc(-c2ccc(Cl)cc2)o1)c1ccc(N2CCNCC2)cc1` gave an unbound share (fraction unbound) at 5 h of 0.0428.

`CC(C)(C)NC(=O)NCCN1CCN(CC(=O)NC23CC4CC(CC(C4)C2)C3)CC1` gave a fraction unbound at 5 h of 0.309.

In turn, `CN(C)CCN1CCN(c2cc(C(=O)NC[C@H]3CC[C@H](CNC(=O)OC(C)(C)C)CC3)c3ccccc3n2)CC1` gave a fraction unbound at 5 h of 0.0568.

The compound `CC(C)c1ccc(NC(=O)Cn2cnc3c2c(=O)n(C)c(=O)n3C)cc1` had a fraction unbound at 5 h of 0.124.

For the compound `CC(C)(C)CS(=O)(=O)NCCN1CCN(CC(=O)NC23CC4CC(CC(C4)C2)C3)CC1`, the fraction unbound at 5 h was 0.129.

With `O=c1[nH]c2c(O)ccc([C@@H](O)CNCCSCCCNCCc3ccccc3)c2s1`, the fraction unbound at 5 h is 0.443.

Compound `C[C@@H](CC(=O)OC(C)(C)C)NC(=O)C1=NO[C@@H](C(O)(C(F)(F)F)C(F)(F)F)C1` showed a fraction unbound at 5 h of 0.19.

`C[C@@H](CC(=O)OC(C)(C)C)NC(=O)C1=NOC(C(O)(C(F)(F)F)C(F)(F)F)C1` (stereo partly drawn) had a fraction unbound at 5 h of 0.16.

A further series in a line: in vitro. Particulars: human, plasma, PPB.
Compound `c1ccc2nc(COc3ccc(-c4n[nH]cc4-c4ccncc4)cc3)ccc2c1` gave a fraction unbound at 5 h of 0.002.

`CCN(C(=O)c1ccc(-c2ccc(Cl)cc2)o1)c1ccc(N2CCNCC2)cc1` showed a fraction unbound at 5 h of 0.0418.

`CC(C)(C)NC(=O)NCCN1CCN(CC(=O)NC23CC4CC(CC(C4)C2)C3)CC1` had a fraction unbound at 5 h of 0.309.

Take `CN(C)CCN1CCN(c2cc(C(=O)NC[C@H]3CC[C@H](CNC(=O)OC(C)(C)C)CC3)c3ccccc3n2)CC1`: the fraction unbound at 5 h was 0.0606.

Turning to `CC(C)c1ccc(NC(=O)Cn2cnc3c2c(=O)n(C)c(=O)n3C)cc1`, the fraction unbound at 5 h was 0.126.

As to `CCS(=O)(=O)c1ccc(-c2cc(C(F)(F)F)ccc2OCC(=O)O)c(Cl)c1`, the fraction unbound at 5 h was 0.0234.

Take `CC(CC(=O)OC(C)(C)C)NC(=O)C1=NOC(C(O)(C(F)(F)F)C(F)(F)F)C1` (stereo not drawn): the fraction unbound at 5 h is 0.194.

In the case of `CC(C)(C)CS(=O)(=O)NCCN1CCN(CC(=O)NC23CC4CC(CC(C4)C2)C3)CC1`, the fraction unbound at 5 h was 0.139.

`O=c1[nH]c2c(O)ccc([C@@H](O)CNCCSCCCNCCc3ccccc3)c2s1` showed a fraction unbound at 5 h of 0.471.

In the case of `CC(C)c1nnc2ccc(-c3ocnc3-c3cc(F)ccc3F)cn12`, the fraction unbound at 5 h is 0.186.

The compound `C[C@@H](CC(=O)OC(C)(C)C)NC(=O)C1=NO[C@@H](C(O)(C(F)(F)F)C(F)(F)F)C1` had a fraction unbound at 5 h of 0.179.

`C[C@@H]1CN(C(=O)N[C@H](Cc2ccc(F)cc2)C(=O)N2CCC(C(=O)NC(C)(C)C)(C3CCCCC3)CC2)C[C@H](C)N1` had a fraction unbound at 5 h of 0.0768.

In the case of `C[C@@H](CC(=O)OC(C)(C)C)NC(=O)C1=NOC(C(O)(C(F)(F)F)C(F)(F)F)C1` (stereo partly drawn), the fraction unbound at 5 h was 0.16.

The nature of the next series: physchem. The following applies: pH 7.4 buffer.
For the compound `CC(C)c1nnc2ccc(-c3ocnc3-c3cc(F)ccc3F)cn12`, the thermodynamic solubility is 186 µM (≈ 63.4 µg/mL).

Another series in a line: in vitro. Particulars: hepatocytes.
In the case of `Cc1c(OC2CCN(CC3CCN([C@@H](Cc4ccc(F)cc4)C(=O)O)CC3)CC2)ccc(C#N)c1Cl`, the hepatocyte CLint was less than 3 µL/min/1e6 cells.

The compound `CCC(=O)NC(c1cccs1)c1cc(Cl)c2cccnc2c1O` (stereo not drawn) gave a hepatocyte CLint greater than 150 µL/min/1e6 cells.

Compound `CCCCNC(=O)c1ccc(Oc2ccc(CC(=O)O)cc2OC)c(NS(=O)(=O)c2ccc(Cl)cc2Cl)c1` returned an intrinsic clearance (hepatocyte CLint) of 3 µL/min/1e6 cells.

For `CCS(=O)(=O)Nc1cccc2c1c(Oc1ccc(Cl)cc1)c(C)n2CC(=O)O`, the hepatocyte CLint was less than 3 µL/min/1e6 cells.

In the case of `COc1cc2c(cc1-c1c(C)noc1C)ncc1[nH]c(=O)n([C@H](C)c3ccccn3)c12`, the hepatocyte CLint is 3.39 µL/min/1e6 cells.

For `Cc1ncc([N+](=O)[O-])n1CCO` [METRONIDAZOLE], the hepatocyte CLint is less than 3 µL/min/1e6 cells.

Compound `C[C@H]1CN(Cc2cc(Cl)ccc2OCC(=O)O)CCN1S(=O)(=O)c1ccccc1` yielded a hepatocyte CLint of less than 3 µL/min/1e6 cells.
